Values of other authors, collected in US10172966B2, “Image guided boronated glucose neutron capture therapy” (priority 2014, dated 2019).

Experiments:
bladder cancer = conditions: in vivo
colorectal cancer = conditions: in vivo

For `OCC1O[C@H](O)C(F)[C@@H](O)[C@@H]1O` (stereo partly drawn) [FDG, 18F-2-fluoro-2-deoxy-D-glucose], the SUV values (bladder cancer) is listed as ~7 and the SUV values (colorectal cancer) is listed as “around 8”.
